“And” between values parts separate entries of the source, which are not always exact repeats. Identical values can stand only once.
Legend:
[1] = Separation of THF from aqueous phase and retention of additive on switching with CO2, by 1H NMR; assay type: physicochemical
Description: (§1) The volumes of each phase were recorded.
The graduated cylinders were capped with rubber septa. […] A second narrow gauge steel tube was provided to vent the gaseous phase.
as §1

[2] = Reversible protonation of amine additives in H2O monitored by conductivity; assay type: physicochemical
Description: 1:1 w/w H2O and THEED was used because a 1:1 v/v solution was too viscous to pour accurately. A trigger gas chosen from CO2, air or nitrogen was bubbled at identical flow rates through the solution via a narrow gauge steel tube and the conductivity of the solution was measured periodically using a Jenway 470 Conductivity Meter (Bibby Scientific, NJ, US) having a cell constant of 1.02 cm^−1.
The deprotonation reactions of the ionic solutions of additives in water were monitored in a similar manner, and the conductivity plot is shown in FIG. 8.
1:1 v/v solutions of the various additives and distilled, deionised water were prepared in six dram glass vials and transferred to a fritted glass apparatus which acted as a reaction vessel. The fritted glass apparatus consisted of a long narrow glass tube leading to a fine glass frit having a diameter of approximately 4 cm. The other end of the glass frit was connected to a cylindrical glass tube which held the solution of the additive during contacting with the trigger gas. […]
A trigger gas chosen from CO2, air or nitrogen was bubbled through the solution via the glass frit at a flow rate of 110 ml min^−1 as measured by a J&W Scientific ADM 2000 Intelligent Flowmeter (CA, USA). For each conductivity measurement, the solution was transferred back to a six dram vial, cooled to 298 K and measured in triplicate. […]

**Q.** For N, N-(dimethylamino)ethanol [DMAE], which “% Additive Retained” value [1] is on record?
**A.** 98.0 ± 0.2% and 93.9 ± 2.1% and 91.7 ± 2.6% and 98.3 ± 0.4% and 73.5 ± 2.0%

**Q.** What about the “Amount of additive retained” value [1] of the same substance?
**A.** 73.5 ± 2.0% mol %

**Q.** What about the “rise in conductivity on CO2 bubbling” value [2] of the same substance?
**A.** largest rise in conductivity

Source: US11498853B2, “Water with switchable ionic strength” (QUEEN'S UNIVERSITY AT KINGSTON, priority 2010, dated 2022)
